Results: ChEMBL document CHEMBL1152770, “Inhibitors of hepatitis C virus polymerase: synthesis and biological characterization of unsymmetrical dialkyl-hydroxynaphthalenoyl-benzothiadiazines” (J Med Chem, 2009)

How the values were obtained:
[1] = test system: Nucleic Acid; experiment: Ratio of drug level in rat liver after 6 hrs to EC50 for HCV isolate Con1 in presence of 40% human serum; assay type: tissue-based
[2] = test system: Nucleic Acid; experiment: Ratio of drug level in rat liver after 12 hrs to EC50 for HCV isolate Con1 in presence of 40% human serum; assay type: tissue-based

## CC(C)CC[C@@]1(C)C(=O)C(C2=NS(=O)(=O)c3cc(NS(C)(=O)=O)ccc3N2)=C(O)c2ccccc21
[1]
  Ratio: 175
[2]
  Ratio: 68
